From ChEMBL document CHEMBL1133928, “Design and synthesis of glycolic and mandelic acid derivatives as factor Xa inhibitors” (Bioorg Med Chem Lett, 2001)

The chains behind the UniProt entries cited, without tags or fusion partners.
UniProt P07477, whole entry: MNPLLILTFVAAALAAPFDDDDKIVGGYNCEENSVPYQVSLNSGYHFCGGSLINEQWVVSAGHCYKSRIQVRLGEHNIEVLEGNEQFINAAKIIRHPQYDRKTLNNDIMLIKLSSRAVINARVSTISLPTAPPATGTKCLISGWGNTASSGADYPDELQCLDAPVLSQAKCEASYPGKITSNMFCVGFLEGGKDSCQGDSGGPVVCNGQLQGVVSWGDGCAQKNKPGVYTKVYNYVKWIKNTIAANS

Target: Serine protease 1 (Homo sapiens, UniProt P07477)
Assay: In vitro inhibitory activity against trypsin

IC50: > 10 µM
Compound: N=C(N)c1cccc(OC(C(=O)Nc2ccc(N3CCOCC3)c(F)c2)c2ccccc2)c1 (stereo unspecified)
